Target: human neutrophil cathepsin G (Homo sapiens, UniProt P08311)
Assay: Enzyme-catalyzed hydrolysis assay, cathepsin G (chromogenic substrate Suc-Ala-Ala-Pro-Phe-pNa)
Settings: read-out: IC50 (μM) CatG; 70 nM enzyme, 5 mM substrate, pH 7.4, 37° C., 30 minutes

Chains of the proteins cited; added tags and fusions are not shown. Residues count along the entry.
UniProt P08311, 21-243 limits assumed: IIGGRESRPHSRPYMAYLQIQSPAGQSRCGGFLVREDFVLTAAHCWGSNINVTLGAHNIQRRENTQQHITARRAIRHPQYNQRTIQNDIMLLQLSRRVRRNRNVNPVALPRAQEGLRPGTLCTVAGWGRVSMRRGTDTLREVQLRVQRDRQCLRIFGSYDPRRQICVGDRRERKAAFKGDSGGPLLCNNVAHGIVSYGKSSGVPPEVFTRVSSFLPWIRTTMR

IC50	Structure (SMILES)
0.52 µM	O=C(c1cc2ccccc2cc1C(=O)N1CCN(c2ccc(F)cc2)CC1)C(c1cccc2ccccc12)P(=O)(O)O (centres unmarked)
0.18 µM	O=C(c1cc2ccccc2cc1C(=O)N1CCN(c2ccc(O)cc2)CC1)C(c1cccc2ccccc12)P(=O)(O)O (centres unmarked)

Source: patent US8703957B2 (Janssen Pharmaceutica NV, priority 2001, dated 2014)
